Patent publication US11267868 (dated 2022)

T1: FcgRIa (human, UniProt P12314)
T1 chain: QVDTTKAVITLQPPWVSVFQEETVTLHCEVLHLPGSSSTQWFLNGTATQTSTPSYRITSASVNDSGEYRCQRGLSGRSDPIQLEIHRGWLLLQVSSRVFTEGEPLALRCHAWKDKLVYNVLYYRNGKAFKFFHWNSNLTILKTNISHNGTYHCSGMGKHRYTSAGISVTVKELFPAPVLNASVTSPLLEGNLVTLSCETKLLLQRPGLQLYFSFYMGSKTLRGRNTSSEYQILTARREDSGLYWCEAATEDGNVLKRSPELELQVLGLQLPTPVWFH


Target: T1, FcgRIa
Assay: SPR

Row | Kd [nM] | Binder
1 | 13 | IL6R-P604/IL6R-L (antibody) chain 1: QVQLQESGPGLVKPSETLSLTCAVSGHSISHDHAWSWVRQPPGEGLEWIGFISYSGITNYNPSLQGRVTISRDNSKNTLYLQMNSLRAEDTAVYYCARSLARTTAMDYWGEGTLVTVSSASTKGPSVFPLAPSSKSTSGGTAALGCLVKDYFPEPVTVSWNSGALTSGVHTFPAVLQSSGLYSLSSVVTVPSSSLGTQTYICNVNHKPSNTKVDKKVEPKSCDKTHTCPPCPAPELLGGDSVMLFPPKPKDTLMISRTPEVTCVVVDVSHEDPEVKFNWYVDGVEVHNAKTKPREEQENATYRVVSVLTVLHQDWLNGKEYKCKVSNKALPAPIEKTISKAKGQPREPQVYTLPPSRDELTKNQVSLTCLVKGFYPSDIAVEWESNGQPENNYKTTPPVLDSDGSFFLYSKLTVDKSRWQQGNVFSCSVMHEALHNHYTQKSLSLSP chain 2: not shown
2 | 13 | IL6R-P688/IL6R-L (antibody) chain 1: QVQLQESGPGLVKPSETLSLTCAVSGHSISHDHAWSWVRQPPGEGLEWIGFISYSGITNYNPSLQGRVTISRDNSKNTLYLQMNSLRAEDTAVYYCARSLARTTAMDYWGEGTLVTVSSASTKGPSVFPLAPSSKSTSGGTAALGCLVKDYFPEPVTVSWNSGALTSGVHTFPAVLQSSGLYSLSSVVTVPSSSLGTQTYICNVNHKPSNTKVDKKVEPKSCDKTHTCPPCPAPELLGGDSVMLFPPKPKDTLMISRTPEVTCVVVDVSPEDPEVKFNWYVDGVEVHNAKTKPREEQENSTYRVVSVLTVLHQDWLNGKEYKCKVNNKALPAPIEKTISKAKGQPREPQVYTLPPSRDELTKNQVSLTCLVKGFYPSDIAVEWESNGQPENNYKTTPPVLDSDGSFFLYSKLTVDKSRWQQGNVFSCSVMHEALHNHYTQKSLSLSP chain 2: not shown
